{
  "sequences": {"note": "Amino acid sequences for entries named in this document (tags omitted).", "UniProt P56718, whole entry, looked up": "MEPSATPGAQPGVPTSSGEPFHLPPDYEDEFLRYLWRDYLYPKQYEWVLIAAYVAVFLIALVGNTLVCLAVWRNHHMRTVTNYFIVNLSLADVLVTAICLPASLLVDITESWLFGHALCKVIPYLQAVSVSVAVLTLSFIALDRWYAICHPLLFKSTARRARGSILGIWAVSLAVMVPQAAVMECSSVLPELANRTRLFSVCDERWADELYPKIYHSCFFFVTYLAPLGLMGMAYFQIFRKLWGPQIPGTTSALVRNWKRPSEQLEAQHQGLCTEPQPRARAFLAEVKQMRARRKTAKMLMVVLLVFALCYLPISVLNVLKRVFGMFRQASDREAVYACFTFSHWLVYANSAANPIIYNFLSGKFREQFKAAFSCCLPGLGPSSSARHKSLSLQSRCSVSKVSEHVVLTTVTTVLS"},
  "source": "ChEMBL document CHEMBL5725827",
  "about": "“2-pyridyloxy-3-ester-4-nitrile orexin receptor antagonists” (2017)",
  "target": "Orexin/Hypocretin receptor type 1 (Rattus norvegicus, UniProt P56718)",
  "experiment": "Radioligand Binding Assay: Described in Bergman et. al. Bioorg. Med. Chem. Lett. 2008, 18, 1425-1430.",
  "design": "species or system Homo sapiens",
  "data": [
    {"smiles": "COC(=O)c1c(C#N)ccnc1O[C@@H]1CC[C@@H](C)N(C(=O)c2cccc(C)c2-n2nccn2)C1", "values": [
      {"measurement": "Ki", "result": 57.8, "unit": "nM"}
    ]},
    {"smiles": "COC(=O)c1c(C#N)ccnc1O[C@@H]1CC[C@@H](C)N(C(=O)c2ccc(F)cc2-c2noc(C)n2)C1", "values": [
      {"measurement": "Ki", "result": 332, "unit": "nM"}
    ]},
    {"smiles": "COC(=O)c1c(C#N)ccnc1O[C@@H]1CC[C@@H](C)N(C(=O)c2c(F)cccc2-c2nc(C)no2)C1", "values": [
      {"measurement": "Ki", "result": 170, "unit": "nM"}
    ]},
    {"smiles": "COC(=O)c1c(C#N)ccnc1O[C@@H]1CC[C@@H](C)N(C(=O)c2c(F)cccc2-c2noc(C)n2)C1", "values": [
      {"measurement": "Ki", "result": 188, "unit": "nM"}
    ]},
    {"smiles": "COC(=O)c1c(C#N)ccnc1O[C@@H]1CC[C@@H](C)N(C(=O)c2ccc(C)cc2-n2nccn2)C1", "values": [
      {"measurement": "Ki", "result": 178, "unit": "nM"}
    ]},
    {"smiles": "COC(=O)c1c(C#N)ccnc1O[C@@H]1CC[C@@H](C)N(C(=O)c2ccc(OC)nc2-n2nccn2)C1", "values": [
      {"measurement": "Ki", "result": 1420, "unit": "nM"}
    ]},
    {"smiles": "COC(=O)c1c(C#N)ccnc1O[C@@H]1CC[C@@H](C)N(C(=O)c2cccc(F)c2-c2ncccn2)C1", "values": [
      {"measurement": "Ki", "result": 174, "unit": "nM"}
    ]},
    {"smiles": "COC(=O)c1c(C#N)ccnc1O[C@@H]1CC[C@@H](C)N(C(=O)c2ccccc2C2CCC2)C1", "values": [
      {"measurement": "Ki", "result": 241, "unit": "nM"}
    ]},
    {"smiles": "COC(=O)c1c(C#N)ccnc1O[C@@H]1CC[C@@H](C)N(C(=O)c2c(F)cccc2-c2ncccn2)C1", "values": [
      {"measurement": "Ki", "result": 48, "unit": "nM"}
    ]}
  ]
}
